# Measurements published in PubChem BioAssay AID493087 (The Scripps Research Institute Molecular Screening Center, 2011).
# The chains behind the UniProt entries cited, without tags or fusion partners.
# UniProt P14735, whole entry: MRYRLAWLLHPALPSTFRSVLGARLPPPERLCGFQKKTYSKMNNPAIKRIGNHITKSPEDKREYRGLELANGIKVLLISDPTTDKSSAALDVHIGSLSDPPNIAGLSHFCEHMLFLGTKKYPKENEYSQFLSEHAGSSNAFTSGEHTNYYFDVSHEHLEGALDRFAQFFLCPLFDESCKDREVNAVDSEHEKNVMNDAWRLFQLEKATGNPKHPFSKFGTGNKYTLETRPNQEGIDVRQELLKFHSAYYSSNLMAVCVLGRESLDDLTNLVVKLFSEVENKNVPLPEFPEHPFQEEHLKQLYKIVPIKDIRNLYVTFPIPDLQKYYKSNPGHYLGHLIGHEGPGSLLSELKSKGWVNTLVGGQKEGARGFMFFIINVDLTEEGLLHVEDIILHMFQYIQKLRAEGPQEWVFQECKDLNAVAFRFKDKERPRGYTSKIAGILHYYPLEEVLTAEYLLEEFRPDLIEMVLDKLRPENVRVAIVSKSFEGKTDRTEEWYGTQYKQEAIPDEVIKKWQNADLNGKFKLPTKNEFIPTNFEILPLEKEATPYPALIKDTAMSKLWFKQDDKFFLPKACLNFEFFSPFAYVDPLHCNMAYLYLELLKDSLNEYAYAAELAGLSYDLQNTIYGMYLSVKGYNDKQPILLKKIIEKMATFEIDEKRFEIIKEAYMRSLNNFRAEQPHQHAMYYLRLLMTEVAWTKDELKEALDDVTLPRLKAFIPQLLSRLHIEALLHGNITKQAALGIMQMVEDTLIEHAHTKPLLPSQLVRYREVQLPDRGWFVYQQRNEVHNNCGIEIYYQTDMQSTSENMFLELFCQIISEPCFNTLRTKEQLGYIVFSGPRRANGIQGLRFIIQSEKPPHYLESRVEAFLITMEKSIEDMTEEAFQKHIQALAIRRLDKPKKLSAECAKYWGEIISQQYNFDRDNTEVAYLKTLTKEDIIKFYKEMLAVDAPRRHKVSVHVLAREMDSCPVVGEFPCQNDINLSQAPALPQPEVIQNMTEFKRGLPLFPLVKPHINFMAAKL
# The entries are a selection whose mix differs from that of the whole data set. Some salts and complexes are drawn in separate pieces, as the source files them; their charges need not balance. The source made the active and inactive calls.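 Rule for the calls: active = activation above the mean of all tested compounds plus 3 SD, set per screening campaign (cut at about 17% in these data); inactive = the rest.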
# Molecular target: Insulin-degrading enzyme (Homo sapiens) (UniProt P14735)
# Assay: enhanced cellular IDE Abeta cleavage – fluorescence polarization, HEK cells, FAbeta-B substrate, primary screen (AID 493087)
# Details: at 5.96 µM, hits give high values, 0% vehicle, 100% cell-free pure enzyme wells
row,SMILES,activation
1,COc1ccc2c(c1O)-c1c(O)c(OC)cc3c1[C@H](C2)[N+](C)(C)CC3.O=[N+]([O-])c1cc([N+](=O)[O-])c([O-])c([N+](=O)[O-])c1[O-],inactive: 3.16%
2,O=C(OC1CN2CCC1CC2)c1ccc([N+](=O)[O-])cc1 (centres undefined),inactive: 4.17%
3,O=C(OCCN1CCN(CCOCc2ccccc2)CC1)C(O)(c1ccccc1)c1ccccc1,inactive: 5.02%
4,CP(=O)(Nc1ccccc1F)Oc1ccccc1 (centres undefined),inactive: -0.2%
5,CC(C)c1ccc(OP(C)(=O)Nc2ccc(SC(F)(F)F)cc2)cc1 (centres undefined),inactive: 6.3%
6,CP(=O)(Nc1ccccc1)Oc1ccc(F)cc1 (centres undefined),inactive: -6.06%
7,O=[N+]([O-])c1cc([N+](=O)[O-])c(OC2CCCCC2O)c([N+](=O)[O-])c1 (centres undefined),inactive: 2.24%
8,CCCCCOc1ccc(NP(C)(=O)Oc2ccc(Cl)cc2Cl)cc1 (centres undefined),inactive: 3.67%
9,Cc1c([N+](=O)[O-])cc([N+](=O)[O-])c(Br)c1[N+](=O)[O-],inactive: 0.25%
10,CCN(CC)CCCOC(=O)C(O)(c1ccccc1)C1CCCCC1 (centres undefined),inactive: 0.18%
11,CCOC(=O)c1ccc(NP(C)(=O)Oc2ccc(F)cc2)cc1 (centres undefined),inactive: -3.25%
12,COc1ccc(OP(C)(=O)Nc2ccc(SC(F)(F)F)cc2)cc1 (centres undefined),inactive: 3.1%
13,Cc1c(C(c2ccc3c(c2)OCO3)c2c(C)n(C)n(-c3ccccc3)c2=O)c(=O)n(-c2ccccc2)n1C.O=[N+]([O-])c1cc([N+](=O)[O-])c(O)c([N+](=O)[O-])c1,inactive: 0.1%
14,O=[N+]([O-])c1ccc(OP2(=O)COCCO2)cc1 (centres undefined),inactive: -1.54%
15,Cc1cc(-c2cccc3ccccc23)c(C)cn1.O=[N+]([O-])c1cc([N+](=O)[O-])c(O)c([N+](=O)[O-])c1,inactive: 13.4%
16,O=[N+]([O-])c1cc([N+](=O)[O-])c(NCC2CCS(=O)(=O)C2)c([N+](=O)[O-])c1 (centres undefined),inactive: 0.08%
17,CN(C)CCOC(=O)C(O)(c1ccccc1)C1CCCCC1 (centres undefined),inactive: 2.18%
18,COc1ccc(NP(C)(=O)Oc2ccccc2OC)cc1 (centres undefined),inactive: -2.9%
19,COc1ccc(OP(C)(=O)Nc2cccc(Br)c2)cc1 (centres undefined),inactive: 0.45%
20,Cc1ccccc1NP(C)(=O)Nc1ccccc1C,inactive: 3.07%
21,CP(=O)(Nc1ccc2c(c1)OCCO2)Oc1ccccc1 (centres undefined),inactive: 5.02%
22,CCOP(C)(=S)SCC(=O)NC(C)(CC)C(=O)O (centres undefined),inactive: -0.19%
23,CP(=O)(Nc1ccc(SC(F)(F)F)cc1)Oc1ccc(F)cc1 (centres undefined),inactive: 2.12%

row,SMILES,activation
1,CN(C)C(=O)c1c([N+](=O)[O-])cc([N+](=O)[O-])cc1[N+](=O)[O-],inactive: 1.27%
2,CC(C)(C)c1ccc(OP(C)(=O)O)cc1,inactive: -1.52%
3,COc1ccccc1OP(C)(=O)Nc1ccccc1Br (centres undefined),inactive: -2.49%
4,CP(=O)(Nc1ccc(Cl)cc1)Oc1ccc(F)cc1 (centres undefined),inactive: -3.53%
5,COc1ccccc1OP(C)(=O)Nc1c(C)n(C)n(-c2ccccc2)c1=O (centres undefined),inactive: 0%
6,O=C(OCCCN1CCCC1)C(O)(c1ccccc1)C1CCCCC1 (centres undefined),inactive: 10.8%
7,CP(=O)(Oc1ccccc1)N1CCOC1=O (centres undefined),inactive: 0.84%
8,CCc1ccc(OP(C)(=O)Nc2cccnc2)cc1 (centres undefined),inactive: 2.89%
9,CCN(CC)CC(O)COC(=O)C(O)(c1ccccc1)C1CCCCC1 (centres undefined),inactive: 5.07%
10,COc1ccc(OP(C)(=O)Nc2ccc(Br)cc2)cc1 (centres undefined),inactive: -6.66%
11,CCOC(=O)c1ccc(NP(C)(=O)Oc2ccc(Cl)cc2)cc1 (centres undefined),inactive: -0.75%
12,CP(=O)(OC12CC3CC(CC(C3)C1)C2)OC12CC3CC(CC(C3)C1)C2,inactive: 3.1%
13,CP(=O)(OCCOc1ccccc1)OCCOc1ccccc1,inactive: 7.29%
14,CP(=O)(Nc1ccc(Cl)cc1Cl)Oc1ccccc1 (centres undefined),inactive: 0.77%
15,CCCCCCCCCCCCCCCC1C[N+](C)(C)CCOP(C)(=O)O1 (centres undefined),inactive: 7.07%
16,COc1ccccc1OP(C)(=O)Nc1ccc(C)c(C)c1 (centres undefined),inactive: -2.36%
17,COc1ccc(OP(C)(=O)Nc2ccccc2Br)cc1 (centres undefined),inactive: 0.86%
18,O=C1C(O)=C([N+](=O)[O-])C(=O)C(O)=C1[N+](=O)[O-],inactive: 4.61%
19,Cc1cc(C)cc(OP(C)(=O)Nc2cccc(C(F)(F)F)c2)c1 (centres undefined),inactive: 5.64%
20,CP(=O)(Nc1ccccn1)Oc1ccccc1 (centres undefined),inactive: 2.4%
21,COc1ccccc1OP(C)(=O)Nc1ccc(C)cc1C (centres undefined),inactive: 5.87%
22,CCc1ccc(OP(C)(=O)O)cc1,inactive: 4.91%
23,O=[N+]([O-])c1cc([N+](=O)[O-])c(Nc2ccccn2)c([N+](=O)[O-])c1,inactive: 3.24%

row,SMILES,activation
1,Cc1c(NP(C)(=O)Oc2ccc(C(C)C)cc2)c(=O)n(-c2ccccc2)n1C (centres undefined),inactive: -0.94%
2,COc1ccc(OP(C)(=O)Nc2ccccn2)cc1 (centres undefined),inactive: -2.61%
3,CN(C)CCOC(=O)C(O)(c1ccccc1)C1CCCC1 (centres undefined),inactive: 6.44%
4,COc1ccccc1OP(C)(=O)Nc1ccc(Br)cc1 (centres undefined),inactive: 3.16%
5,CCN(CC)CCCOC(=O)C(O)(c1ccccc1)c1ccccc1,inactive: 2.73%
6,Cc1cc(C)cc(OP(C)(N)=O)c1 (centres undefined),inactive: -2.24%
7,COc1ccccc1OP(C)(=O)Nc1cc(Cl)ccc1C (centres undefined),inactive: -4.49%
8,COc1ccc(OP(C)(=O)Nc2cccc(F)c2)cc1 (centres undefined),inactive: -4.08%
9,COc1ccccc1OP(C)(=O)Nc1ccc(C)cc1 (centres undefined),inactive: 5.57%
10,Cc1ccc(NP(C)(=O)Oc2ccccc2)c(C)c1 (centres undefined),inactive: 0.75%
11,CCOC(=O)c1ccc(NP(C)(=O)Oc2ccccc2)cc1 (centres undefined),inactive: 5.61%
12,O=[N+]([O-])c1ccc2c(c1)C=Nc1ccccc1O2,inactive: 3.29%
13,CC(C)(C)c1ccc(OP(C)(=O)Nc2ccc(SC(F)(F)F)cc2)cc1 (centres undefined),inactive: -5.04%
14,Cc1cccc(C)c1OP(C)(N)=O (centres undefined),inactive: -3.5%
15,O=[N+]([O-])c1cc([N+](=O)[O-])c(Nc2cccnc2)c([N+](=O)[O-])c1,inactive: -1.17%
16,CP(=O)(Nc1ccccc1Br)Oc1ccccc1 (centres undefined),inactive: -2.94%
17,CP(=S)(Nn1cnnc1)Oc1ccccc1 (centres undefined),inactive: 3.31%
18,CP(=O)(Nc1ccccn1)Oc1ccc(Cl)cc1 (centres undefined),inactive: -3.57%
19,CCOC(=O)c1ccc(NP(C)(=O)Oc2ccc(OC)cc2)cc1 (centres undefined),inactive: -1.97%
20,CCOP(C)(=S)SCC(=O)NC(C)C(=O)O (centres undefined),inactive: 0.53%
21,CCc1ccc(OP(C)(=O)N2CCN(c3ccc([N+](=O)[O-])cc3)CC2)cc1 (centres undefined),inactive: -4.05%
22,CP(=O)(NC(=O)Nc1ccccc1)Oc1ccccc1 (centres undefined),inactive: 4.97%
23,Cc1cc(C)cc(OP(C)(=O)Nc2ccc(SC(F)(F)F)cc2)c1 (centres undefined),inactive: 6%

row,SMILES,activation
1,Cc1cccc(C)c1OP(C)(=O)Nc1ccc(SC(F)(F)F)cc1 (centres undefined),inactive: 2.38%
2,CP(=O)(Oc1ccccc1)OC(c1ccccc1)C(F)(F)F (centres undefined),inactive: 2.42%
3,Cc1nc2ccc3ccccc3c2s1.O=[N+]([O-])c1cc([N+](=O)[O-])c(O)c([N+](=O)[O-])c1,inactive: -7.31%
4,O=[N+]([O-])c1cc([N+](=O)[O-])c(-c2cnn(-c3ccccc3)c2)c([N+](=O)[O-])c1,inactive: 1.72%
5,O=[N+]([O-])c1cc([N+](=O)[O-])c(-n2nnc3ccccc32)c([N+](=O)[O-])c1,inactive: 5.12%
6,CP(=O)(Nc1ccc(SC(F)(F)F)cc1)Oc1ccccc1 (centres undefined),inactive: 2.07%
7,CCCOc1ccc(NP(C)(=O)Oc2ccc(Cl)cc2)cc1 (centres undefined),inactive: 0.31%
8,CN1CCCCC1COC(=O)C1(O)c2ccccc2CCc2ccccc21 (centres undefined),inactive: 4.03%
9,COc1ccccc1OP(C)(=O)Nc1c(C)cccc1C (centres undefined),inactive: -3.3%
10,O=[N+]([O-])c1cc([N+](=O)[O-])c(Nc2nnnn2CCO)c([N+](=O)[O-])c1,inactive: 2.78%
11,CC1=C2N=C(C=C3N=C(C(C)=C4[N-][C@@](C)([C@@H]5N=C1[C@](C)(CCC(=O)NC[C@@H](C)OP(=O)([O-])O[C@H]1[C@@H](O)[C@@H](n6cnc7cc(C)c(C)cc76)O[C@@H]1CO)[C@H]5CC(N)=O)[C@@](C)(CC(N)=O)[C@@H]4CCC(N)=O)[C@@](C)(CC(N)=O)[C@@H]3CCC(N)=O)C(C)(C)[C@@H]2CCC(N)=O.[C-]#N.[Co+3],inactive: 6.23%
12,CCOC(=O)C(CC)C1=NC(C)(C)Cc2ccccc21.O=[N+]([O-])c1cc([N+](=O)[O-])c(O)c([N+](=O)[O-])c1 (centres undefined),inactive: -1.51%
13,CC1=NCCc2c1[nH]c1ccccc21.O=[N+]([O-])c1cc([N+](=O)[O-])c(O)c([N+](=O)[O-])c1,inactive: 2.2%
14,O=C(O)c1cccc(Nc2c([N+](=O)[O-])cc([N+](=O)[O-])cc2[N+](=O)[O-])c1,inactive: 1.18%
15,Cc1ccc(C)c(NP(C)(=O)Oc2ccccc2)c1 (centres undefined),inactive: 2.55%
16,CP(=O)(Nc1cccc(Br)c1)Oc1ccccc1 (centres undefined),inactive: 5.33%
17,Cc1cc(C)cc(OP(C)(=O)Nc2ccccn2)c1 (centres undefined),inactive: 1.06%
18,CCOC(=O)c1ccc(NP(C)(=O)Oc2cc(C)cc(C)c2)cc1 (centres undefined),inactive: 2.75%
19,Cc1cc(C)cc(OP(C)(=O)Nc2ccc(C)cc2C)c1 (centres undefined),inactive: 0.9%
20,COc1ccccc1OP(C)(=O)Nc1cccc(Br)c1 (centres undefined),inactive: 2.59%
